Measured values as given in patent publication US20110008465A1, “SESQUITERPENE FORMULATIONS, KITS AND METHODS OF USE THEREOF” (priority 2007, published 2011).

Experiments:
Experiment in all cases: Chou and Talalay combination assay with beta-caryophyllene
Details in all cases: anticancer drug in combination with beta-caryophyllene; Chou and Talalay CI; 48 h
DLD-1 (colon cancer) = assay type: cell-based, human
[1] = test system: MDA-MB-231 (breast cancer); assay type: cell-based, human
PA-1 (ovary cancer) = assay type: cell-based, human
B16 (murine melanoma) = assay type: cell-based
[2] = test system: GL-261 (murine glioblastoma); assay type: cell-based
[3] = test system: U-251 (human glioblastoma); assay type: cell-based
A-549 (lung cancer) = assay type: cell-based, human
MCF-7 (breast cancer) = assay type: cell-based, human
MEL-2 (human melanoma) = assay type: cell-based

N[C@@H](Cc1ccc(N(CCCl)CCCl)cc1)C(=O)O [Melphalan, melphalan]
Potentiating activity DLD-1 (DLD-1 (colon cancer)): (3) (Moderate: 0.5 < CI < 0.8 at IC50) | Potentiating activity MDA [1]: (3) (Moderate: 0.5 < CI < 0.8 at IC50) | Potentiating activity PA-1 (PA-1 (ovary cancer)): (1) (Very High: potentiating or additive activity to IC20 and CI < 0.6 to IC50) | Potentiating activity B16 (B16 (murine melanoma)): (1) (Very High: potentiating or additive activity to IC20 and CI < 0.6 to IC50) | Potentiating activity GL-261 [2]: (1) (Very High: potentiating or additive activity to IC20 and CI < 0.6 to IC50) | Potentiating activity U-251 [3]: (1) (Very High: potentiating or additive activity to IC20 and CI < 0.6 to IC50) | Potentiating activity A-549 (A-549 (lung cancer)): (4) (Weak: 0.8 < CI < 1 at IC50) | Potentiating activity MCF-7 (MCF-7 (breast cancer)): (2) (High: CI below 0.5 at IC50) | Potentiating activity MEL-2 (MEL-2 (human melanoma)): (1) (Very High: potentiating or additive activity to IC20 and CI < 0.6 to IC50)

CC(=O)O[C@@]12CO[C@@H]1C[C@H](O)[C@@]1(C)C(=O)[C@H](O)C3=C(C)[C@@H](OC(=O)[C@H](O)[C@@H](NC(=O)OC(C)(C)C)c4ccccc4)C[C@@](O)([C@@H](OC(=O)c4ccccc4)[C@H]21)C3(C)C [Taxotere ™, docetaxel]
Potentiating activity DLD-1 (DLD-1 (colon cancer)): (3) (Moderate: 0.5 < CI < 0.8 at IC50) | Potentiating activity MDA [1]: (4) (Weak: 0.8 < CI < 1 at IC50) | Potentiating activity PA-1 (PA-1 (ovary cancer)): (1) (Very High: potentiating or additive activity to IC20 and CI < 0.6 to IC50) | Potentiating activity B16 (B16 (murine melanoma)): (1) (Very High: potentiating or additive activity to IC20 and CI < 0.6 to IC50) | Potentiating activity GL-261 [2]: (3) (Moderate: 0.5 < CI < 0.8 to IC50) | Potentiating activity U-251 [3]: (1) (Very High: potentiating or additive activity to IC20 and CI < 0.6 to IC50) | Potentiating activity A-549 (A-549 (lung cancer)): (3) (Moderate: 0.5 < CI < 0.8 at IC50) | Potentiating activity MCF-7 (MCF-7 (breast cancer)): (1) (Very High: CI equal or below 1 at IC20 and Cl below 0.6 to IC50) | Potentiating activity MEL-2 (MEL-2 (human melanoma)): (3) (Moderate: 0.5 < CI < 0.8 to IC50)
